Results on two compounds are retold here after patent US8865706B2, “Heteroaryl-substituted hexahydropyrano[3,4-d][1,3]thiazin-2-amine compounds” (Pfizer Inc., priority 2013, dated 2014).

Chains of the proteins cited; added tags and fusions are not shown. Residues count along the entry.
UniProt P56817, 46-457: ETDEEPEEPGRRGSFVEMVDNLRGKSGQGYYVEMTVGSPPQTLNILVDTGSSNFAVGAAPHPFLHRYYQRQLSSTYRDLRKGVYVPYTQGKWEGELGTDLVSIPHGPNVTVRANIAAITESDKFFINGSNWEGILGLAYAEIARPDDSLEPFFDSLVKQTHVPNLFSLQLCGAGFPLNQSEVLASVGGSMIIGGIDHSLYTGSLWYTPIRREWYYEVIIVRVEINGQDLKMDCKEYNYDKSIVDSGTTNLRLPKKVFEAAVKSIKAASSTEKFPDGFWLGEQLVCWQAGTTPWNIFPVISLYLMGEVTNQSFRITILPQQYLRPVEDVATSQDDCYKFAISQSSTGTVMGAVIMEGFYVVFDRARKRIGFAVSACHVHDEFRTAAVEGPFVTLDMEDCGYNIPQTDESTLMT

The target of this test is BACE1 enzyme (Homo sapiens (Human), UniProt P56817). Briefly: BACE1 Cell-Free Assay (fluorescence polarization, cleavage of synthetic APP substrate). Format: biochemical. Conditions: average of 2 determinations; values marked b: geometric mean of 3-9 determinations. The text has this: This assay measures the inhibition of the beta-secretase enzyme as it cleaves a non-native peptide.
A synthetic APP substrate that can be cleaved by beta-secretase having N-terminal biotin and made fluorescent by the covalent attachment of Oregon Green at the Cys residue is used to assay beta-secretase activity in the presence or absence of the inhibitory compounds. […] The BACE1 enzyme is affinity purified material from conditioned media of CHO-K1 cells that have been transfected with a soluble BACE construct (BACE1deltaTM96His). Compounds are incubated in a ½ log dose response curve from a top concentration of 100 μM with BACE1 enzyme and the biotinylated fluorescent peptide in 384-well black plates (Thermo Scientific #4318). BACE1 is at a final concentration of 0.1 nM with a final concentration of peptide substrate of 150 nM in a reaction volume of 30 μL assay buffer [100 mM sodium acetate, pH 4.5 (brought to pH with acetic acid), and 0.001% Tween-20]. Plates are covered and incubated for 3 hours at 37° C. […] After a 10 minute incubation at room temperature, plates are read on a PerkinElmer EnVision for fluorescence polarization (Ex485 nm/Em530 nm). The activity of the beta-secretase enzyme is detected by changes in the fluorescence polarization that occur when the substrate is cleaved by the enzyme.
Background: Polarisation of emitted light reports the rotation of a fluorescent probe.

In the case of `Cc1ccc([C@H]2C[C@H]3CSC(N)=N[C@@]3(c3ccc(F)cc3F)CO2)cn1` (relative stereo) [Example 7, rel-(4aR,6R,8aS)-8a-(2,4-Difluorophenyl)-6-(6-methylpyridin-3-yl)-4,4a,5,6,8,8a-hexahydropyrano[3,4-d][1,3]thiazin-2-amine], the IC50 is 182 nM.
The figure for `NC1=N[C@@]2(c3ccc(F)cc3F)CO[C@@H](c3cncc(F)c3)C[C@H]2CS1` [Example 29, (4aR,6R,8aS)-8a-(2,4-difluorophenyl)-6-(5-fluoropyridin-3-yl)-4,4a,5,6,8,8a-hexahydropyrano[3,4-d][1,3]thiazin-2-amine] is 37.9 nM.

Broadly, the IC50 is the midpoint of a concentration-inhibition curve. Read a low IC50 as higher potency.
